The text below walks through data of paper PMC11163988, “Cloning, expression, and purification of an α-carbonic anhydrase from Toxoplasma gondii to unveil its kinetic parameters and anion inhibition profile” (Journal of Enzyme Inhibition and Medicinal Chemistry, 2024).

Sequences of proteins named here, by UniProt entry; tags and fusion partners are left off. Residues count along the entry.
UniProt S8F479, 486-829 limits assumed: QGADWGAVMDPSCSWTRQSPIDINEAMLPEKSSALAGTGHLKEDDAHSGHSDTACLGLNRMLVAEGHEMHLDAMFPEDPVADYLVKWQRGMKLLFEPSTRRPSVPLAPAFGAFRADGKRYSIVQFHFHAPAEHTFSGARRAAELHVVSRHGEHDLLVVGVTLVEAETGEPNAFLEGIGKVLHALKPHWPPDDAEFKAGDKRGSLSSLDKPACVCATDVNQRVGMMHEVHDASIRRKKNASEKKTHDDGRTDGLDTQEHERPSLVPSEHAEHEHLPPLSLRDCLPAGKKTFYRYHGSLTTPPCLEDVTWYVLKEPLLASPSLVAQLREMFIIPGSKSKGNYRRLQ

The experiment has as its target Tg_CA (Toxoplasma gondii α-CA) (Toxoplasma gondii, UniProt S8F479). The class given is biochemical. The following applies: pH 7.5; read-out: KI (mM) Tg_CAα.

Regarding fluorosulfonate [FSO3^–], the Ki was 2.7 mM.
